Three compounds from ChEMBL document CHEMBL4038350 (J Med Chem, 2017) can be followed below.

Sequences of proteins named here, by UniProt entry; tags and fusion partners are left off. A change or cut given only in a name is not applied to a line headed by its entry.
UniProt P33033: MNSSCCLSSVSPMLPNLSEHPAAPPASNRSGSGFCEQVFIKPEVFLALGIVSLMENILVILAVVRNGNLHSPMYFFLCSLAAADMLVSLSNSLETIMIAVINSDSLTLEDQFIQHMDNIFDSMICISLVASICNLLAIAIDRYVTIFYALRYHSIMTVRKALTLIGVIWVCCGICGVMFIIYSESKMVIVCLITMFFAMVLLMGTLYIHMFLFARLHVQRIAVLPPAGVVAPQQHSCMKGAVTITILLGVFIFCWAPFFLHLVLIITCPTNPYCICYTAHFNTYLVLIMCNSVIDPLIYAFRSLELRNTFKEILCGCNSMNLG
UniProt P56450, whole entry: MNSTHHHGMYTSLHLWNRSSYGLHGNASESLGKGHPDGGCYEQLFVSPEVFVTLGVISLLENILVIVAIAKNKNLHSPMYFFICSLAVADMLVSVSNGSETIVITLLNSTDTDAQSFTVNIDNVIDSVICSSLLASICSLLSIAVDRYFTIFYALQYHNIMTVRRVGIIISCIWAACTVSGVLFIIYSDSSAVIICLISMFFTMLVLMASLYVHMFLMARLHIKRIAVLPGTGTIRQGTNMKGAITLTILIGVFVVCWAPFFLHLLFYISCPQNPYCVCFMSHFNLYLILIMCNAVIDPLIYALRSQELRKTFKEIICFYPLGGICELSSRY

Type in all cases: functional, cell-based
Assay [1] has as its target Melanocortin receptor 3 (Mus musculus, UniProt P33033). The assay is described as follows: Agonist activity at mouse melanocortin receptor 3 expressed in HEK293 cells assessed as increase in cAMP accumulation after 2 hrs by AlphaScreen assay. In a few lines: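 Peptide (10−4 to 10−13 M) was added for 2 h at room temperature in the dark. Donor beads and biotin-cAMP in lysis buffer followed for 2 h. The AlphaScreen signal was read. EC50 came from nonlinear least-squares fits, duplicates, at least three independent experiments.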
(cAMP levels reflect the balance of adenylyl cyclase and phosphodiesterase activity.)

Assay [2] addresses T1, Melanocortin receptor 4 (Mus musculus, UniProt P56450). As to the kind of experiment: Agonist activity at mouse melanocortin receptor 4 expressed in HEK293 cells assessed as increase in cAMP accumulation after 2 hrs by AlphaScreen assay.
Assay [3] concerns the target T1, Melanocortin receptor 4. As to the kind of experiment: Antagonist activity at mouse melanocortin receptor 4 expressed in HEK293 cells assessed as inhibition of NDP-MSH-induced cAMP accumulation after 2 hrs by AlphaScreen assay. As to conditions: read-out: pA2 (converted).

Structures are written as SMILES.

On to `C[C@@H]1NC(=O)[C@H](CC(N)=O)NC(=O)[C@H](Cc2ccccc2)NC(=O)[C@H](Cc2ccccc2)NC(=O)[C@H](CCCNC(=N)N)NC(=O)[C@@H]2CCCN2C(=O)[C@H]2CCCN2C(=O)[C@H](Cc2ccccc2)NC1=O`, for which the EC50 (commonly the concentration needed to bring the measured effect to its halfway point) in assay [1] is greater than 100 µM.
For `C[C@@H]1NC(=O)[C@H](CN)NC(=O)[C@H](Cc2ccccc2)NC(=O)[C@H](Cc2ccccc2)NC(=O)[C@H](CCCNC(=N)N)NC(=O)[C@@H]2CCCN2C(=O)[C@H]2CCCN2C(=O)[C@H](Cc2ccccc2)NC1=O`, the half-maximal effective concentration (EC50) in assay [2] was greater than 100 µM. In assay [3], the Kb was 2 nM.
On to `C[C@@H]1NC(=O)[C@@H](CN)NC(=O)[C@H](Cc2ccccc2)NC(=O)[C@H](Cc2ccccc2)NC(=O)[C@H](CCCNC(=N)N)NC(=O)[C@@H]2CCCN2C(=O)[C@H]2CCCN2C(=O)[C@H](Cc2ccccc2)NC1=O`, for which the EC50 in assay [2] was greater than 100 µM.
